Source: US20150330981A1 (published 2015)

Key:
Assay in all cases: GST pull-down from HEK-293T whole cell extract, anti-HA Western blot
[1] = biological target: T1, HA PPARα (mouse, UniProt P23204 1-468)
T1 construct: Expressed in HEK-293T; whole cell extract was used; also called mPPARα; not shown: HA tag
T1 sequence (looked up): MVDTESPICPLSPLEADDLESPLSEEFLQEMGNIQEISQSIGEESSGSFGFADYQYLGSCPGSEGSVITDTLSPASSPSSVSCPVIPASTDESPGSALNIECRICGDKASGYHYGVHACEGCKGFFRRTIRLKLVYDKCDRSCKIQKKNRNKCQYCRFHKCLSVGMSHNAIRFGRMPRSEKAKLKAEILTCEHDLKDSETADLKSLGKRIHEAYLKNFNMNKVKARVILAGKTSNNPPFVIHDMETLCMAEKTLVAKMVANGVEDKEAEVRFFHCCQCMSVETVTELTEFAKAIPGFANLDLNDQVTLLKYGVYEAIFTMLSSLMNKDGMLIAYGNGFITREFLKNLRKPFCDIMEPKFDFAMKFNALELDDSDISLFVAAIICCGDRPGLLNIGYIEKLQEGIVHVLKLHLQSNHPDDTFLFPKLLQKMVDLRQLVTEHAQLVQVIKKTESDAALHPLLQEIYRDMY
Description: (§1) Firstly, GST fusion synoviolin which lack transmembrane domain (GST syno ΔTM) was incubated with glutathione-Sepharose 4B. The GST fusion protein was incubated with whole cell extract from HEK-293T expressing HA PPARγ, HA PPARα, HA PGC-1α, or HA PGC-1β. Bound protein was eluted and separated by SDS-PAGE, and Western blot was performed using anti-HA antibody. GST which was not fused to any protein was used as a control.

[2] = biological target: T2, HA PPARγ (mouse, UniProt P37238 1-505, limits assumed)
T2 construct: Expressed in HEK-293T; whole cell extract was used; also called mPPARγ; not shown: HA tag
T2 sequence (looked up): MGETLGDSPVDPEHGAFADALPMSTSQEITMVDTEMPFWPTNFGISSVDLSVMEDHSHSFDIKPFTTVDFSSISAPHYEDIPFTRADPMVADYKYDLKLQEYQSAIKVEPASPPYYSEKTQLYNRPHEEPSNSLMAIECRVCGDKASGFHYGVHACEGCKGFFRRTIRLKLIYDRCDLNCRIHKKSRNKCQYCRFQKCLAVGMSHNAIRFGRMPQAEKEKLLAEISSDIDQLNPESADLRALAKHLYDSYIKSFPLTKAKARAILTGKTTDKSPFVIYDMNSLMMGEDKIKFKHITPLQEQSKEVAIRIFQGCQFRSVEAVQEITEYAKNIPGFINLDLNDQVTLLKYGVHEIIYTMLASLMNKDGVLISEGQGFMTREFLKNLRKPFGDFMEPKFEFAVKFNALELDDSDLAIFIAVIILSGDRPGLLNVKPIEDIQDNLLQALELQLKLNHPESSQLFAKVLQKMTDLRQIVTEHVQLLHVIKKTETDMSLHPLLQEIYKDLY
Description: as §1

[3] = biological target: T3, HA PGC-1α (mouse, UniProt O70343 1-797)
T3 construct: Expressed in HEK-293T; whole cell extract was used; also called mPGC-1α; not shown: HA tag
T3 sequence (looked up): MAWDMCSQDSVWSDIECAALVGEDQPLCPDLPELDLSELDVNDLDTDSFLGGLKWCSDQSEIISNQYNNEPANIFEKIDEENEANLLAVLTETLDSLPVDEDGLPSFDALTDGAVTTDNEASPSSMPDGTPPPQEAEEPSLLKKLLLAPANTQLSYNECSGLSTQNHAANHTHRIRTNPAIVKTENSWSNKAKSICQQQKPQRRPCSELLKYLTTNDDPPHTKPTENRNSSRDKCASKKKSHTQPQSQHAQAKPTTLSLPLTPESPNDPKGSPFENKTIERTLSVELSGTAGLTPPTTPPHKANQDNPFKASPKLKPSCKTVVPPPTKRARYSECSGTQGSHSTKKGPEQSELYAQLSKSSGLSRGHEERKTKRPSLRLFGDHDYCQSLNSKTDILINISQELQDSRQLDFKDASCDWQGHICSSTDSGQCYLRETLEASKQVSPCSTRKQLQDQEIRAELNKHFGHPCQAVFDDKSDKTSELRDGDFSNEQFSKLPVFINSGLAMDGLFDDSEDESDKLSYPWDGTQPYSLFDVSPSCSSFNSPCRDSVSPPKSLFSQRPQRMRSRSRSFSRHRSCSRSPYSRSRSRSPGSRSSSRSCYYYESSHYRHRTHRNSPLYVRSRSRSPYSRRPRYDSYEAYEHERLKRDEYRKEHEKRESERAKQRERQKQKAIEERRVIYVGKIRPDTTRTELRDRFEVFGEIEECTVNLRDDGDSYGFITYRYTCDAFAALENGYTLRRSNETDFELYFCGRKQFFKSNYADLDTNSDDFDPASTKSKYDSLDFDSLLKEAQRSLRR
Description: as §1

[4] = biological target: T4, HA PGC-1β (full-length mouse PGC-1β with HA tag) (mouse, UniProt Q8VHJ7 1-1014)
T4 construct: also called mPGC-1β; pcDNA3 HAPGC-1β; not shown: HA tag from pcDNA3 HA vector
T4 sequence (looked up): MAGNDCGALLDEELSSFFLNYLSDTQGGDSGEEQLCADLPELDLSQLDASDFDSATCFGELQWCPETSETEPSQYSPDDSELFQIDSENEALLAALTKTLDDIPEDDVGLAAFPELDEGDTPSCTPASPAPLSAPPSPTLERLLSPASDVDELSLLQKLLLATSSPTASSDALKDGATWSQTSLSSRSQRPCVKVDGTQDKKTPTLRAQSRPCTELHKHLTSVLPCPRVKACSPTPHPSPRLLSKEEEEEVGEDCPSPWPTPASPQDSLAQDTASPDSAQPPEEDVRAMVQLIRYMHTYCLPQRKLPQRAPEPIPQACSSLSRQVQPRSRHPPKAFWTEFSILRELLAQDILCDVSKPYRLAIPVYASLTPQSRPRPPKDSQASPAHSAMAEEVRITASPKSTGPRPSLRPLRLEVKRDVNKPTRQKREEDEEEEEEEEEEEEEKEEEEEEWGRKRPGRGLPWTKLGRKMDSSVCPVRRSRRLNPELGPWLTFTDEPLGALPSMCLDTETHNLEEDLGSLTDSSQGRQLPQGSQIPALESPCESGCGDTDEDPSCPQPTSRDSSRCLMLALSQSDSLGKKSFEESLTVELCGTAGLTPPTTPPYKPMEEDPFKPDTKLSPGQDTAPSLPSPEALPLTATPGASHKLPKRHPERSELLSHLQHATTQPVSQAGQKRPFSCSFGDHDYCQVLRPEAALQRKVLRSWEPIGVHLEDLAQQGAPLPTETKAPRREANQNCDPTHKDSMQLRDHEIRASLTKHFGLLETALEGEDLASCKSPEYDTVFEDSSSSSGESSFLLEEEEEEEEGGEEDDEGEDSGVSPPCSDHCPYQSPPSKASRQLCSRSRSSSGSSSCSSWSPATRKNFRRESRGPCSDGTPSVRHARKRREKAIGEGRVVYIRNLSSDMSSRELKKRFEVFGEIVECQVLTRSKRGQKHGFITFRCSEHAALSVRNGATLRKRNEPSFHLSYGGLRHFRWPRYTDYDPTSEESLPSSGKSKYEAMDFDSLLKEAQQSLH
Description: as §1

Measured: binding result

B1: GST which was not fused to any protein (other, UniProt P08515 1-218, looked up)
chain: MSPILGYWKIKGLVQPTRLLLEYLEEKYEEHLYERDEGDKWRNKKFELGLEFPNLPYYIDGDVKLTQSMAIIRYIADKHNMLGGCPKERAEISMLEGAVLDIRYGVSRIAYSKDFETLKVDFLSKLPEMLKMFEDRLCHKTYLNGDHVTHPDFMLYDALDVVLYMDPMCLDAFPKLVCFKKRIEAIPQIDKYLKSSKYIAWPLQGWQATFGGGDHPPK
notes: Control of the GST pull-down
no binding: all assays above
